Assay: Solubility of oxidized glutathione in water at each pH (HPLC quantification)
Type: physicochemical
Conditions: for solubility (FIG. 1): 25° C.
Experimental: A crystal of oxidized glutathione (monohydrate) was added to 100 ml of water and the mixture was stirred at 25° C. for 4 hr. After measurement of pH, the solution was separated and filtered, and the dissolved oxidized glutathione was quantified by high performance liquid chromatography (HPLC) under the following conditions. Then, the crystal of oxidized glutathione was added to 1 mol/L of aqueous sodium hydroxide solution, and the mixture was stirred for 4 hr or longer while glutathione crystal slightly remained undissolved. After measurement of pH, the solution was separated and filtered, and the concentration was measured in the same manner.
As the content, the concentration (g/L) of oxidized glutathione was quantified under the following HPLC conditions.
HPLC Conditions • column: Inertsil ODS-3 φ3×100 mm • column temperature: 35° C. • buffer: 3% methanol solution containing 0.2% sodium 1-heptanesulfonate, 6.8% potassium dihydrogen phosphate (adjusted to pH 3.0 with phosphoric acid) • flow rate: 0.5 mL/min • detector: UV detector (wavelength 210 nm)

oxidized glutathione
solubility (FIG. 1) (at not less than pH 4.0 (pH raised with sodium hydroxide)): remarkably increased | saturated solubility of oxidized glutathione in water (at the isoelectric point, in water at ambient temperature (25° C.)): not more than 20 g/L | solubility (FIG. 1) (solution at pH 2.0-3.0 near the isoelectric point): lowest

— patent US9028669B2, “Process for producing reduced glutathione” (Kyowa Hakko Bio Co., Ltd., priority 2011, dated 2015)
